Tested on: rats
Details: i.a. administration, 3 mg, 28-day study
Procedure: All experiments have been approved by the Institutional Animal Care and Use Committee (IACUC) at Abbott Laboratories and are in strict accordance with the ethical guidelines laid down by the International Association for the Study of Pain (IASP) (Zimmermann, 1983) for the care and use of laboratory animals. […] Following injection, the animals were allowed to recover from the effects of anesthesia (usually 5-10 mins) before returning to their home cages. […] Animals were euthanized by CO2 inhalation on day 20. The injected knee joints were dissected and immediately fixed in 10% phosphate buffered formalin. The samples were then decalcified in 5% formic acid for 3 days, routinely processed and then embedded in paraffin wax. Frontal histologic sections of the femorotibial joints (6 μm) were prepared, stained with toluidine-blue and examined with a light microscope (Guzman et al., 2003).
Measurements of peak hind limb grip force were conducted by recording the maximum compressive force exerted on the hind limb strain gauge setup, in a commercially available grip force measurement system (Columbus Instruments, Columbus, Ohio). […] Additional tests were performed 1, 2, 4, 7, 10, 13, 17, 21, 24, and 28 days following the injections.

For sodium monoiodoacetate [MIA], the “effect on general health of the animals” value was “no effect”.
